US20210322301A1, “DOSING REGIMENS FOR TREATING METAL-MEDIATED CONDITIONS” (Abfero Pharmaceuticals, Inc., priority 2016, published 2021)
Read-outs that look alike come from different tables or passages of the source.

What was measured:
[1] = for Weight Change (%): baseline vs day of last dose; for Deaths @ Cumulative Dose (mg/kg) / Survival: oral gavage
[2] = tested on: kidney injury molecule-1 (KIM-1)
[3] = 10-parameter urine dipstick analysis (glucosuria, hematuria, pH, specific gravity) after oral SP-420
[4] = 200 mg/kg SID, max cumulative dose 2400 mg/kg, n=5
[5] = 250 mg/kg EOD, max cumulative dose 2500 mg/kg, n=5
[6] = 250 mg/kg SID, max cumulative dose 2500 mg/kg, n=5
[7] = 325 mg/kg EOD, max cumulative dose 2600 mg/kg, n=10
[8] = 400 mg/kg EOD, max cumulative dose 2400 mg/kg, n=5
[9] = 500 mg/kg EOD, max cumulative dose 2500 mg/kg, n=5
[10] = Example 2, recovery period, both groups

COCCOCCOc1ccc(C2=N[C@@](C)(C(=O)O)CS2)c(O)c1 [SP-420, (S)-4,5-dihydro-2-[2-hydroxy-4-(3,6-dioxaheptyloxy)phenyl]-4-methyl-4-thiazolecarboxylic acid]
Weight Change (%) [1, 4]: −4.9%
Weight Change (%) [1, 5]: +8.5%
Deaths @ Cumulative Dose (mg/kg) [1, 5]: Survived
Weight Change (%) [1, 6]: −5.2%
Survival [1, 6]: 2/5
Weight Change (%) [1, 7]: +0.8%
Deaths @ Cumulative Dose (mg/kg) [1, 7]: Survived
Survival [1, 7]: 10/10
Weight Change (%) [1, 8]: −2.8%
Weight Change (%) [1, 9]: −5.2%
Survival of exposure to the drug ([1]; Example 1, 162.5 mg/kg SID and 325 mg/kg EOD groups, cumulative 2600 mg/kg, n=5 per group): All of the SID and EOD-treated rats survived
Rats euthanized post-last dose (weight loss, deteriorating condition) ([1]; Example 2, 162.5 mg/kg SID): One rat from the 162.5 mg/kg SID group was euthanized 4 days post-last dose
KIM-1 ≥250 ng/kg/24 h (rats affected) [2, 4]: 5/5
KIM-1 ≥500 ng/kg/24 h (rats affected) [2, 4]: 5/5
KIM-1 ≥1000 ng/kg/24 h (rats affected) [2, 4]: 5/5
KIM-1 ≥2000 ng/kg/24 h (rats affected) [2, 4]: 1/5
KIM-1 ≥250 ng/kg/24 h (rats affected) [2, 5]: 0/5
KIM-1 ≥500 ng/kg/24 h (rats affected) [2, 5]: 0/5
KIM-1 ≥1000 ng/kg/24 h (rats affected) [2, 5]: 0/5
KIM-1 ≥2000 ng/kg/24 h (rats affected) [2, 5]: 0/5
KIM-1 ≥250 ng/kg/24 h (rats affected) [2, 6]: 5/5
KIM-1 ≥500 ng/kg/24 h (rats affected) [2, 6]: 5/5
KIM-1 ≥1000 ng/kg/24 h (rats affected) [2, 6]: 3/5
KIM-1 ≥2000 ng/kg/24 h (rats affected) [2, 6]: 0/5
KIM-1 ≥250 ng/kg/24 h (rats affected) [2, 7]: 9/10
KIM-1 ≥500 ng/kg/24 h (rats affected) [2, 7]: 4/10
KIM-1 ≥1000 ng/kg/24 h (rats affected) [2, 7]: 3/10
KIM-1 ≥2000 ng/kg/24 h (rats affected) [2, 7]: 1/10
KIM-1 ≥250 ng/kg/24 h (rats affected) [2, 8]: 4/5
KIM-1 ≥500 ng/kg/24 h (rats affected) [2, 8]: 2/5
KIM-1 ≥1000 ng/kg/24 h (rats affected) [2, 8]: 2/5
KIM-1 ≥2000 ng/kg/24 h (rats affected) [2, 8]: 1/5
KIM-1 ≥250 ng/kg/24 h (rats affected) [2, 9]: 4/5
KIM-1 ≥500 ng/kg/24 h (rats affected) [2, 9]: 2/5
KIM-1 ≥1000 ng/kg/24 h (rats affected) [2, 9]: 1/5
KIM-1 ≥2000 ng/kg/24 h (rats affected) [2, 9]: 0/5
Changes in KIM-1 levels post-drug (recovery) ([2]; Example 1, 5 or 6 days post-drug): largely returned to baseline levels
KIM-1 levels on the off day (24-48 hours post drug) ([2]; Example 2, 325 mg/kg EOD): did not decrease
KIM-1 strips, T line (FIG. 2) ([2]; Example 2, 325 mg/kg EOD, cumulative dose 2600 mg/kg, strips 6-10): very little KIM-1 was observed in any of strips 6-10 except strip 7
Average KIM-1 levels after end of dosing (FIG. 5) [2, 10]: returned to near baseline levels very quickly
KIM-1 levels after end of dosing, representative rats (FIG. 1A-1B) [2, 10]: returned to near baseline levels very quickly
Glucosuria and KIM-1 levels, EOD regimens compared to SID regimens ([2]; same cumulative dose, Table 1 summary): consistenly lower
Urine Dipstick: Glucosuria (rats affected) [3, 4]: 3/5
Urine Dipstick: Hematuria (Frank) (rats affected) [3, 4]: 2/5
Urine Dipstick: Specific gravity ≥1.030 (rats affected) [3, 4]: 3/5
Urine Dipstick: pH ≤5 (rats affected) [3, 4]: 4/5
Urine Dipstick: Glucosuria (rats affected) [3, 5]: 0/5
Urine Dipstick: Hematuria (Frank) (rats affected) [3, 5]: 0/5
Urine Dipstick: Specific gravity ≥1.030 (rats affected) [3, 5]: 0/5
Urine Dipstick: pH ≤5 (rats affected) [3, 5]: 0/5
Urine Dipstick: Glucosuria (rats affected) [3, 6]: 4/5
Urine Dipstick: Hematuria (Frank) (rats affected) [3, 6]: 1/5
Urine Dipstick: Specific gravity ≥1.030 (rats affected) [3, 6]: 2/5
Urine Dipstick: pH ≤5 (rats affected) [3, 6]: 3/5
Urine Dipstick: Glucosuria (rats affected) [3, 7]: 0/10
Urine Dipstick: Hematuria (Frank) (rats affected) [3, 7]: 0/10
Urine Dipstick: Specific gravity ≥1.030 (rats affected) [3, 7]: 2/10
Urine Dipstick: pH ≤5 (rats affected) [3, 7]: 0/10
Urine Dipstick: Glucosuria (rats affected) [3, 8]: 1/5
Urine Dipstick: Hematuria (Frank) (rats affected) [3, 8]: 0/5
Urine Dipstick: Specific gravity ≥1.030 (rats affected) [3, 8]: 1/5
Urine Dipstick: pH ≤5 (rats affected) [3, 8]: 2/5
Urine Dipstick: Glucosuria (rats affected) [3, 9]: 1/5
Urine Dipstick: Hematuria (Frank) (rats affected) [3, 9]: 1/5
Urine Dipstick: Specific gravity ≥1.030 (rats affected) [3, 9]: 1/5
Urine Dipstick: pH ≤5 (rats affected) [3, 9]: 2/5
Glucosuria (rats affected) ([3]; Example 1, 325 mg/kg EOD, n=5): none
